Laboratory results published in IntAct's records for PubMed 35512704.

B1: RAC-alpha serine/threonine-protein kinase (Homo sapiens), P31749 (parent)
chain: MSDVAIVKEGWLHKRGEYIKTWRPRYFLLKNDGTFIGYKERPQDVDQREAPLNNFSVAQCQLMKTERPRPNTFIIRCLQWTTVIERTFHVETPEEREEWTTAIQTVADGLKKQEEEEMDFRSGSPSDNSGAEEMEVSLAKPKHRVTMNEFEYLKLLGKGTFGKVILVKEKATGRYYAMKILKKEVIVAKDEVAHTLTENRVLQNSRHPFLTALKYSFQTHDRLCFVMEYANGGELFFHLSRERVFSEDRARFYGAEIVSALDYLHSEKNVVYRDLKLENLMLDKDGHIKITDFGLCKEGIKDGATMKTFCGTPEYLAPEVLEDNDYGRAVDWWGLGVVMYEMMCGRLPFYNQDHEKLFELILMEEIRFPRTLGPEAKSLLSGLLKKDPKQRLGGGSEDAKEIMQHRFFAGIVWQHVYEKKLSPPFKPQVTSETDTRYFDEEFTAQMITITPPDQDDSMECVDSERRPHFPQFSYSASGTA
partner: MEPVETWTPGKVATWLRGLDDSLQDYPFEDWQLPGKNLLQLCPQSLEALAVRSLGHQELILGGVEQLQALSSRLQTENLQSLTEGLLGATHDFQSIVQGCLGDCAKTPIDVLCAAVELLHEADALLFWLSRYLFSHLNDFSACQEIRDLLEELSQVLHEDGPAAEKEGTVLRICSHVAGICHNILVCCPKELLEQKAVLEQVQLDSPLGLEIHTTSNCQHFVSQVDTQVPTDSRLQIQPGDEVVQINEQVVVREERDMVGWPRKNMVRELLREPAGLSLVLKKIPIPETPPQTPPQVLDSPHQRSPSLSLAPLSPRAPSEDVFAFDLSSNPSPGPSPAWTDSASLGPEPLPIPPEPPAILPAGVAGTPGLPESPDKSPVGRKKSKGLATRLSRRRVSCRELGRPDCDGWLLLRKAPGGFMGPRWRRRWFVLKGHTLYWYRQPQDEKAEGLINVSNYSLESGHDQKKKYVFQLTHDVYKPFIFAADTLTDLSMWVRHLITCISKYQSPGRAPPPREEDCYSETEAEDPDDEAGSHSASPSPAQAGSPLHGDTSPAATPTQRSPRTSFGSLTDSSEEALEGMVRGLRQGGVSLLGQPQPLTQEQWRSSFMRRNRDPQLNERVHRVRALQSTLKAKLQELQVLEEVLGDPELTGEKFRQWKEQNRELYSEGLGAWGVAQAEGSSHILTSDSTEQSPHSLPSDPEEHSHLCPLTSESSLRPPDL
B2: RAC-alpha serine/threonine-protein kinase (Homo sapiens), P31749 (parent)
chain: B1 chain
partner: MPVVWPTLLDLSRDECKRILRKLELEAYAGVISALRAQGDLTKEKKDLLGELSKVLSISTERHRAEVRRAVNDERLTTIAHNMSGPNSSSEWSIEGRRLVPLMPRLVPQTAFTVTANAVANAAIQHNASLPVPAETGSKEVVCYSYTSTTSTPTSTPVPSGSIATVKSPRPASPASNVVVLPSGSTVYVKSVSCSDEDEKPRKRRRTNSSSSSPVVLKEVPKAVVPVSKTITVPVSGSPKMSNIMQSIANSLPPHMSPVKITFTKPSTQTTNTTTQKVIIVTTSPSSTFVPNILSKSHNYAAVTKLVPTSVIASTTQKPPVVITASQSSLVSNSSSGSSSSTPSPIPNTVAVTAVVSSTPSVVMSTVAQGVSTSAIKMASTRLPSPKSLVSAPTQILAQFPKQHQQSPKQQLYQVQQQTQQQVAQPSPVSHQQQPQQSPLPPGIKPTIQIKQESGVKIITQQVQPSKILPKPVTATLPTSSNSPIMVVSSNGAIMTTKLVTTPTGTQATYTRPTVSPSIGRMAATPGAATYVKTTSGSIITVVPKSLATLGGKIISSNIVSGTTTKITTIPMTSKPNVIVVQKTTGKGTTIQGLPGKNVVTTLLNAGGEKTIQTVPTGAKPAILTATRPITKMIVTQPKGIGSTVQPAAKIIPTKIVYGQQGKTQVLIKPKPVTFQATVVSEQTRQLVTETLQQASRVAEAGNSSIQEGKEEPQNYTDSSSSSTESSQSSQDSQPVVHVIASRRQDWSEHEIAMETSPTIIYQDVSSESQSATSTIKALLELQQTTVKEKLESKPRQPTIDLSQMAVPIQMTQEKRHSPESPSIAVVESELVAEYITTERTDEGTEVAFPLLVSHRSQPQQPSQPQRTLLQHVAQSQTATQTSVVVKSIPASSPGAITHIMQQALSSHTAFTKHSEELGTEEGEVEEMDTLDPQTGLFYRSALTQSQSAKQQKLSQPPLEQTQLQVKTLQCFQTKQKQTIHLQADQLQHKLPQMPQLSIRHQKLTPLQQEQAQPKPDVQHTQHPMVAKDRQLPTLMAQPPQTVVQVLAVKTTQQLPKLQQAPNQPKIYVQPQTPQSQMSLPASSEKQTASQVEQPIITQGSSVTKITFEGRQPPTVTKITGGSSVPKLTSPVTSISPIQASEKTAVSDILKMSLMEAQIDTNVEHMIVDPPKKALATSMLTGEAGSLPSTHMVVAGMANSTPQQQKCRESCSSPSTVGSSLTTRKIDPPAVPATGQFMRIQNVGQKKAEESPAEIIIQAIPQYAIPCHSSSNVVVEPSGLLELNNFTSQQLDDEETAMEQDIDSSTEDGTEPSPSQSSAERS
B3: RAC-alpha serine/threonine-protein kinase (Homo sapiens), P31749 (parent)
chain: B1 chain
partner: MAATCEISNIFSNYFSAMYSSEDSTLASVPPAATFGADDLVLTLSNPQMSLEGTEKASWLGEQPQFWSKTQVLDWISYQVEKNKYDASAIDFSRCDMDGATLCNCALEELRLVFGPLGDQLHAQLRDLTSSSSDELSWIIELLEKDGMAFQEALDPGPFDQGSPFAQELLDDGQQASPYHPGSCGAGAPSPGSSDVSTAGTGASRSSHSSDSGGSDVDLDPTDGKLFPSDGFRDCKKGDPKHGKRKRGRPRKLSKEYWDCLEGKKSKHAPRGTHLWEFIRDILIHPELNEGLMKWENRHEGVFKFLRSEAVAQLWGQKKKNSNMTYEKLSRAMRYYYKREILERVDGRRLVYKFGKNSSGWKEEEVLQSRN

Variants of: B1
Conditions: with cnkr1_human CNKSR1, Q969H4

Row | effect of a mutation on the interaction | Variant
1 | with no effect | MSDVAIVKEGWLHKRGKYIKTWRPRYFLLKNDGTFIGYKERPQDVDQREAPLNNFSVAQCQLMKTERPRPNTFIIRCLQWTTVIERTFHVETPEEREEWTTAIQTVADGLKKQEEEEMDFRSGSPSDNSGAEEMEVSLAKPKHRVTMNEFEYLKLLGKGTFGKVILVKEKATGRYYAMKILKKEVIVAKDEVAHTLTENRVLQNSRHPFLTALKYSFQTHDRLCFVMEYANGGELFFHLSRERVFSEDRARFYGAEIVSALDYLHSEKNVVYRDLKLENLMLDKDGHIKITDFGLCKEGIKDGATMKTFCGTPEYLAPEVLEDNDYGRAVDWWGLGVVMYEMMCGRLPFYNQDHEKLFELILMEEIRFPRTLGPEAKSLLSGLLKKDPKQRLGGGSEDAKEIMQHRFFAGIVWQHVYEKKLSPPFKPQVTSETDTRYFDEEFTAQMITITPPDQDDSMECVDSERRPHFPQFSYSASGTA [E17K]

Variants of: B2
Conditions: with emsy_human EMSY

Row | effect of a mutation on the interaction | Variant
2 | with no effect | MSDVAIVKEGWLHKRGKYIKTWRPRYFLLKNDGTFIGYKERPQDVDQREAPLNNFSVAQCQLMKTERPRPNTFIIRCLQWTTVIERTFHVETPEEREEWTTAIQTVADGLKKQEEEEMDFRSGSPSDNSGAEEMEVSLAKPKHRVTMNEFEYLKLLGKGTFGKVILVKEKATGRYYAMKILKKEVIVAKDEVAHTLTENRVLQNSRHPFLTALKYSFQTHDRLCFVMEYANGGELFFHLSRERVFSEDRARFYGAEIVSALDYLHSEKNVVYRDLKLENLMLDKDGHIKITDFGLCKEGIKDGATMKTFCGTPEYLAPEVLEDNDYGRAVDWWGLGVVMYEMMCGRLPFYNQDHEKLFELILMEEIRFPRTLGPEAKSLLSGLLKKDPKQRLGGGSEDAKEIMQHRFFAGIVWQHVYEKKLSPPFKPQVTSETDTRYFDEEFTAQMITITPPDQDDSMECVDSERRPHFPQFSYSASGTA [E17K]

Variants of: B3
Conditions: with elf3_human ELF3, P78545

Row | effect of a mutation on the interaction | Variant
3 | with no effect | MSDVAIVKEGWLHKRGKYIKTWRPRYFLLKNDGTFIGYKERPQDVDQREAPLNNFSVAQCQLMKTERPRPNTFIIRCLQWTTVIERTFHVETPEEREEWTTAIQTVADGLKKQEEEEMDFRSGSPSDNSGAEEMEVSLAKPKHRVTMNEFEYLKLLGKGTFGKVILVKEKATGRYYAMKILKKEVIVAKDEVAHTLTENRVLQNSRHPFLTALKYSFQTHDRLCFVMEYANGGELFFHLSRERVFSEDRARFYGAEIVSALDYLHSEKNVVYRDLKLENLMLDKDGHIKITDFGLCKEGIKDGATMKTFCGTPEYLAPEVLEDNDYGRAVDWWGLGVVMYEMMCGRLPFYNQDHEKLFELILMEEIRFPRTLGPEAKSLLSGLLKKDPKQRLGGGSEDAKEIMQHRFFAGIVWQHVYEKKLSPPFKPQVTSETDTRYFDEEFTAQMITITPPDQDDSMECVDSERRPHFPQFSYSASGTA [E17K]
